Measurements as given in PMC9308496 (Journal of medicinal chemistry, 2021).

Amino acid sequences for entries named in this document (tags omitted).
UniProt P35462, whole entry: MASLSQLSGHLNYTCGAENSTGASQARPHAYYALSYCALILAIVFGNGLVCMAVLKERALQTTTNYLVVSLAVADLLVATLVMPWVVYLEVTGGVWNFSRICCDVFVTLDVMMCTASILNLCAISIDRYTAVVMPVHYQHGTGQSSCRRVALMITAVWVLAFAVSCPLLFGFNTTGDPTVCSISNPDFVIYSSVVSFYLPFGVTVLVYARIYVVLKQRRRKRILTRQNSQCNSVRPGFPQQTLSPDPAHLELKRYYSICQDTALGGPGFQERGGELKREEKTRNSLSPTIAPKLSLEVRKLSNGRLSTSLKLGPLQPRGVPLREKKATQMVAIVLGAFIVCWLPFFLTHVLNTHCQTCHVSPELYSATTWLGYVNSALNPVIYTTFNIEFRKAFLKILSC
UniProt P35372, whole entry: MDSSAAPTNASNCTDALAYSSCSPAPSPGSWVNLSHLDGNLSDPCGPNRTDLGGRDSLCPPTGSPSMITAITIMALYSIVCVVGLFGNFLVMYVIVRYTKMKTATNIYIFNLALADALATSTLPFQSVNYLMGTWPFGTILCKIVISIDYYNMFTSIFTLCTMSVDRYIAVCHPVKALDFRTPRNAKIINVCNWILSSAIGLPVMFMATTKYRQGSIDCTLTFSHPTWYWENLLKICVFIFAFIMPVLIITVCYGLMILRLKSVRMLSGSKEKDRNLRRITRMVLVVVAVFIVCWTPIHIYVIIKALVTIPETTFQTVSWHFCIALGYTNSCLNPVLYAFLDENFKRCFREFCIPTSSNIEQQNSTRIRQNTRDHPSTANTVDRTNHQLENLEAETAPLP

How the values were obtained:
[1] = target: hD3R (Homo sapiens, UniProt P35462); assay: Radioligand competition binding at hD3R with [3H]-N-methylspiperone
[2] = target: hMOR (Homo sapiens, UniProt P35372); assay: Radioligand competition binding at hMOR with [3H]-DAMGO

Compound: N#CC(CCN1CCN(c2cccc(Cl)c2Cl)CC1)(c1ccccc1)c1ccccc1 [compound 13, 4-(4-(2,3-Dichlorophenyl)piperazin-1-yl)-2,2-diphenylbutanenitrile]
- reduced D3R binding, fold ([1]; relative to analogous amide 23): ~ 13 fold
- reduced MOR binding, fold ([2]; relative to analogous amide 23): ~ 320 fold

Compound: CCc1cccc(N2CCN(CCC(c3cccc(O)c3)c3cccc(O)c3)CC2)c1Cl [compound 55, 3,3’-(3-(4-(2-chloro-3-ethylphenyl)piperazin-1-yl)propane-1,1-diyl)diphenol]
- loss of affinity at MOR, binding Ki fold less than 30 and 23 ([2]; relative to 30 and 23): > 300 fold

Compound: O=C(NCCCCN1CC[C@]2(c3cccc(O)c3)CCC[C@H]1[C@H]2O)c1cc2ccccc2[nH]1 [compound 62, N-(4-((1S,5S,9S)-9-Hydroxy-5-(3-hydroxyphenyl)-2-azabicyclo[3.3.1]nonan-2-yl)butyl)-1H-indole-2-carboxamide]
- improved D3R affinity, fold [1]: ~ 172 fold
